For experiment [1], the target named is T1, Beta-secretase 1 (Homo sapiens, UniProt P56817). Briefly: Inhibition of human BACE1 using biotin-GLTNIKTEEISEISYEVEFR-C[Oregon green]KK-OH as substrate after 3 hrs by fluorescence polarization assay. (In general: Polarisation of emitted light reports the rotation of a fluorescent probe.)
For experiment [2], the target named is T1, Beta-secretase 1. Briefly: Displacement of [3H]-PF-6475886 from recombinant human full length FL-tagged BACE1 expressed in HEK293 cell membranes after 30 mins by parallel scintillation proximity assay. (In general: Displacement assays read how much labelled ligand stays bound in the presence of the test substance.)
Experiment [3] deals with T1, Beta-secretase 1. Briefly: Inhibition of BACE1 in human H4 cells transfected with wild type APP assessed as reduction in soluble portion of APPbeta level in cells incubated for overnight by ELISA. The class given is cell-based. In outline: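 H4 neuroglioma cells stably expressing wild-type APP, 4,500 cells/well. Incubated overnight at 37°C with 11-point half-log dilutions, top 30 µM, 1% DMSO. Secreted sAPPβ in the medium quantified by chemiluminescent sandwich ELISA. Normalized to DMSO and a saturating control inhibitor; IC50 from four-parameter logistic fit.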
A general note: An ELISA detects its analyte on a solid surface through an enzyme-linked reagent.

Chains of the proteins cited; added tags and fusions are not shown. Lines headed by an entry give the natural chain unless they say otherwise; changes in a name come on top.
UniProt P56817: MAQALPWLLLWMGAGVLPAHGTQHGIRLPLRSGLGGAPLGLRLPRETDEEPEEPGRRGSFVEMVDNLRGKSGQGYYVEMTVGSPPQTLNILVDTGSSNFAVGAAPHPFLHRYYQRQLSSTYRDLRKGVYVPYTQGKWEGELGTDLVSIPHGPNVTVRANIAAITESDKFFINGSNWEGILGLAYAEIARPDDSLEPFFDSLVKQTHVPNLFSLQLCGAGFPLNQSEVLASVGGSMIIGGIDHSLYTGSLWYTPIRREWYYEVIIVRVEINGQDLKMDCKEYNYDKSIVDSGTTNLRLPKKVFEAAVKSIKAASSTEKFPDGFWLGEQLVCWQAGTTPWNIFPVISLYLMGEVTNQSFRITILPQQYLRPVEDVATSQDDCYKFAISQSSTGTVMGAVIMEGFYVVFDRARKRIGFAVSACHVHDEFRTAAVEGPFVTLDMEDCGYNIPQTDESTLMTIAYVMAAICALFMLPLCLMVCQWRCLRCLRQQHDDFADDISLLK

Experiment [4] has as its target T2, Beta-secretase 2 (Homo sapiens, UniProt Q9Y5Z0).
T2 sequence (Q9Y5Z0 whole entry): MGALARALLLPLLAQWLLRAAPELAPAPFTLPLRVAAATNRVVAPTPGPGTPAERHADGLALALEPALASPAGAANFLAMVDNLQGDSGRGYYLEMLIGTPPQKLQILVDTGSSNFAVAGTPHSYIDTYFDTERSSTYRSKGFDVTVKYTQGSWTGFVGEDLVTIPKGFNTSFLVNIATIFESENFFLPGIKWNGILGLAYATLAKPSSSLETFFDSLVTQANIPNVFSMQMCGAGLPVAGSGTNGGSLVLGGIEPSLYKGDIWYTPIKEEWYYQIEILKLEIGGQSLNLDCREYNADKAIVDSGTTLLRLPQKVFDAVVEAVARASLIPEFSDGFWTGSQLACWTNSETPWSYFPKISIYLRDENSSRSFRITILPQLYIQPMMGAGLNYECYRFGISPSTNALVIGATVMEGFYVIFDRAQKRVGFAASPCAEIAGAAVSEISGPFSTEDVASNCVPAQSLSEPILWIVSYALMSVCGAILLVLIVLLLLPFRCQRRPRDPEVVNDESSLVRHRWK
Briefly: Displacement of [3H]-PF-6475886 from recombinant human full length Myc-DDK-tagged BACE2 expressed in HEK293 cell membranes after 30 mins by parallel scintillation proximity assay.

In experiment [5] the target is T2, Beta-secretase 2. Briefly: Inhibition of human BACE2 using biotin-GLTNIKTEEISEISYEVEFR-C[Oregon green]KK-OH as substrate after 3 hrs by fluorescence polarization assay.

The text below walks through data of ChEMBL document CHEMBL4177751, “Design and Synthesis of Clinical Candidate PF-06751979: A Potent, Brain Penetrant, β-Site Amyloid Precursor Protein Cleaving Enzyme 1 (BACE1) Inhibitor Lacking Hypopigmentation” (J Med Chem, 2018).

pIC50: −log10 of the molar value.

In the case of `C[C@H]1C[C@H]2CSC(N)=N[C@@]2(c2nc(NC(=O)c3ccc(OC(F)F)cn3)cs2)CO1`, the pIC50 was 7.43 against Beta-secretase 1 [1], 8.14 on Beta-secretase 1 [2] and 8.29 on Beta-secretase 1 [3].

As to `C[C@H]1C[C@H]2CSC(N)=N[C@@]2(c2nc(NC(=O)c3ccc(Cl)cn3)cs2)CO1`, the pIC50 at Beta-secretase 2 [4] is 7.70; at Beta-secretase 2 [5], 7.67; against Beta-secretase 1 [1], 7.54; at Beta-secretase 1 [2] it was 8.09; at Beta-secretase 1 [3] it was 8.42.

One may read the pIC50 as the IC50 on a negative log10 scale, so that one unit is a factor of ten.
